The values that follow come from PubChem BioAssay AID1645883 (National Center for Advancing Translational Sciences (NCATS), 2021).

Chains of the proteins cited; added tags and fusions are not shown.
UniProt O95398, whole entry: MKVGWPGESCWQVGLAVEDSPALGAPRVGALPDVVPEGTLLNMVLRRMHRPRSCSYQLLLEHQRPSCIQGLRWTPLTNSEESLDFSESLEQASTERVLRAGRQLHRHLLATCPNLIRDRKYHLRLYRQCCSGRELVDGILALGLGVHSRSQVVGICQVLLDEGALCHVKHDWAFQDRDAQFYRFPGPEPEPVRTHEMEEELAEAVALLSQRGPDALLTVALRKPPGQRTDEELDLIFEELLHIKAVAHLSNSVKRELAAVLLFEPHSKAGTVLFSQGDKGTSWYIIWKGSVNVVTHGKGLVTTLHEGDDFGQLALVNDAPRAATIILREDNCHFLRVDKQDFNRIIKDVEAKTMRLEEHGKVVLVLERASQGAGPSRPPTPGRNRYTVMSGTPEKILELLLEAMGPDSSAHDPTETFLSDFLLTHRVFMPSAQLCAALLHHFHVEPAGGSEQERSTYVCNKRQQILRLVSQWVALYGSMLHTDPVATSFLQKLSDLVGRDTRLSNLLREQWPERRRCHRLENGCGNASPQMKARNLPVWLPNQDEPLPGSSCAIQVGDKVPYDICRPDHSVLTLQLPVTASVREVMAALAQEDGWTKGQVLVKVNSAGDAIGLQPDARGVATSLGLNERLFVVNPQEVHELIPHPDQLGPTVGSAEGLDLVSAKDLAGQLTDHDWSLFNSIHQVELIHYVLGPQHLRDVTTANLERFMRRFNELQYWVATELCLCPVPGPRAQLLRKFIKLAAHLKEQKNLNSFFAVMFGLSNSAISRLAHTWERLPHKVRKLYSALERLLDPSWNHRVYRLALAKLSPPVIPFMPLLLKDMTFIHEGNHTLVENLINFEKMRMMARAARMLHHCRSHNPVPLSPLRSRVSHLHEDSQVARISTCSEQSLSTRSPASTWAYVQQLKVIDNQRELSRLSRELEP

Each structure is given as a SMILES string. Values joined by “and” are separate entries in the source; they are usually repeats but may differ in a detail not shown here. Equal values may be shown once. This is a selection; strong and weak results do not stand in their true shares. Inconclusive results are not listed. Active and inactive are the calls of the source. The call rests on the fitted dose curve; in most records, active means well fitted activation curve with a large enough effect; inconclusive means small, poorly fitted or top-dose-only effect; inactive means no such curve, though single readings can be large or run the other way.
On the % scale 0 is the no-effect control and ±100 the full control effect.

This assay addresses Rap guanine nucleotide exchange factor 3 (Homo sapiens) (UniProt O95398). Briefly: Validation qHTS for agonist of cAMP-regulated guanine nucleotide exchange factor 3 (EPAC1). Further: nearly all actives have a fitted effect of over 70% in size. The following applies: EPAC1 Rap1b BODIPY-GDP exchange, fluorescence; stronger effect = higher value; percent of cAMP control response. The text has this: Assay Provider (PI): Xiaodong Cheng Ph.D.
The University of Texas Medical Branch, […], TX
In multi-cellular eukaryotic organisms, the effects of cAMP are transduced by two ubiquitously-expressed intracellular cAMP receptors, the classic protein kinase A/cAMP-dependent protein kinase (PKA/cAPK) and the more recently discovered exchange protein directly activated by cAMP/cAMP-regulated guanine nucleotide exchange factor (EPAC/cAMP-GEF). Both PKA and EPAC are ubiquitously expressed in all tissues, and an increase in intracellular cAMP levels will lead to the activation of both PKA and EPAC. Therefore, careful dissections of the individual role and relative contribution of EPAC and PKA within the overall cAMP signaling in various model systems are critical for further elucidating the mechanism of cAMP signaling. To date no EPAC-specific antagonists and agonist, as well as isoform-specific agonists have been reported, and developing EPAC-specific pharmacological probes to determine the physiological functions that EPAC play in the overall cAMP-mediated signaling remains a major challenge within the research field. […]
This qHTS will be used to screen the Molecular Libraries Small Molecule Repository (MLSMR) as a concentration-titration series using the NCGC unique quantitative screening (qHTS) platform to find activators for EPAC1. […] Activators are identified by monitoring the change in fluorescence signal as the exchanged free BODIPY-GDP has a reduced fluorescence compared to Rap1-bound BODIPY-GDP. […]
Briefly, three uL of reagents (100 nM EPAC1, 250 nM RAP1B-BODIPY-GDP, 50 uM GDP) were dispensed into a 1536-well Greiner black solid-bottom medium binding assay plate. […] The assay plates were read at 5 minute intervals for 30 minutes in the ViewLux plate reader using 480nm excitation and 540nm emission filters. […]
For `CCC(=O)N(c1ccccc1)C1(COC)CCN(CCc2cccs2)CC1`, the max response was inactive: 8.23%.

For the compound `CCC(=O)N(c1ccccc1)C1(COC)CCN(CCn2nnn(CC)c2=O)CC1`, the max response is inactive: 12.1%.

For the compound `CN(CCCl)CCCl`, the max response was inactive: -7.72% and inactive: 20.7%.
